# Measurements published in paper PMC9724349, “Discovery of a pyrano[2,3-b]pyridine derivative YX-2102 as a cannabinoid receptor 2 agonist for alleviating lung fibrosis” (Journal of Translational Medicine, 2022).
# By UniProt entry, the sequences of proteins in these tests, tags left out.
# UniProt P34972, whole entry: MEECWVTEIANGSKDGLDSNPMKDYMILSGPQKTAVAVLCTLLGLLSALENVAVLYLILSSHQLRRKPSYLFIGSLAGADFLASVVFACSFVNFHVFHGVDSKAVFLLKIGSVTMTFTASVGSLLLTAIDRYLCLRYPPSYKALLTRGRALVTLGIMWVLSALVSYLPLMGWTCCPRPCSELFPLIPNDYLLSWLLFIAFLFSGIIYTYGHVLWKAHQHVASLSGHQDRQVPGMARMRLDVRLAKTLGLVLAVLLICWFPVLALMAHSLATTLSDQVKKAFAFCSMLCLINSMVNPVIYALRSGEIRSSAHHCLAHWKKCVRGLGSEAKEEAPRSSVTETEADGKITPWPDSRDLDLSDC
# Target: cannabinoid receptor 2 (CB2R) (Homo sapiens, UniProt P34972)
# Experiment: radioligand binding assay, [3H]CP […] displacement
structure (smiles),measurement,value
Cc1ccc(N2C(=O)[C@H]3[C@@H](CC(=O)c4ccccc4)Cc4oc5ccccc5c4[C@H]3C2=O)cc1,Ki,3.6 µM
